According to PubChem BioAssay AID624263 (National Center for Advancing Translational Sciences (NCATS), 2012):
Several values for one entry are separate records, joined by “and”; a condition that tells them apart may be missing. Identical values can stand only once. The entries are a selection whose mix differs from that of the whole data set. Some of these compounds have results that are not shown, active ones among them. Activity calls are given as the source filed them. Calls come from the whole dose curve; as a rule, active = well fitted activation curve with a large enough effect; inconclusive = small, poorly fitted or top-dose-only effect; inactive = flat fitted curve, though single readings scatter; cell line not stated here.

Experiment: A Quantitative High throughput Screen to Identify Chemical Modulators of PINK1 Expression; note: % of control where 0% means no effect; nearly all actives have a fitted effect of over 65% in size
Details: PINK1 immunofluorescence, high-content cytometry, 24 h; at 76.6 µM (top of the series)

| SMILES | activation (PINK1 increase) |
| --- | --- |
| CN(C)C1(CNC(=O)c2ccccc2F)CCCCC1 | inactive: -0.47% |
| Cc1ccc(C(=O)NCC2(N3CCCCC3)CCCCC2)cc1 | inactive: 2.75% |
| CC(C)N1C(=O)CC2(CCN(CCOC(=O)C(O)(c3ccccc3)c3ccccc3)CC2)C1=O | inactive: 1.47% |
| CCN(CC)CC(C)C(C)OC(=O)C(O)(c1ccccc1)c1ccccc1 (configuration not stated) | inactive: -1.06% |
| CN(C)C1(CNC(=O)c2cccc(Cl)c2)CCCCC1 | inactive: -0.193% |
| COc1cc(SC)ccc1C(=O)NCC1(N(C)C)CCCCC1 | inactive: 3.27% |
| CN1[C@@H]2CC[C@H]1CC(OC(=O)C(O)(c1ccccc1)c1ccccc1)C2 (some centres not stated) | inactive: 0.833% |
| O=C(NCC1(N2CCCCC2)CCCCC1)c1cc([N+](=O)[O-])ccc1Cl | inactive: -0.429% |
| CCN1CCCC(OC(=O)C2(O)c3ccccc3C=Cc3ccccc32)C1 (configuration not stated) | inactive: -1.53% |
| Cc1cc(C(=O)NCC2(N3CCCCC3)CCCCC2)ccc1[N+](=O)[O-] | inactive: 3.14% |
| O=C(NCC1(N2CCCCC2)CCCCC1)c1cccc(Br)c1 | inactive: 0.0765% |
| COc1ccc(C(=O)NCC2(N(C)C)CCCCC2)cc1 | inactive: -1.63% |
| CCOc1cccc(C(=O)NCC2(N(C)C)CCCCC2)c1 | inactive: 1% |
| C=CCN1CCN(CCOC(=O)C(O)(c2ccccc2)c2ccccc2)CC1 | inactive: 1.01% |
| O=C(NCC1(N2CCCCC2)CCCCC1)c1cc(F)c(F)cc1Cl | inactive: 5.31% |
| CCCCOc1ccccc1C(=O)NCC1(N(C)C)CCCCC1 | inactive: -0.0513% |
| Cc1ccccc1C(=O)NCC1(N2CCCCC2)CCCCC1 | inactive: -0.607% |
| CN(C)C1(CNC(=O)c2ccccc2[N+](=O)[O-])CCCCC1 | inactive: 2.09% |
| CN(C)c1ccc(C(=O)NCC2(N(C)C)CCCCC2)cc1 | inactive: 0.0703% |

| SMILES | activation (PINK1 increase) |
| --- | --- |
| CN(C)C1CCCC1OC(=O)C(O)(c1ccccc1)c1ccccc1 (configuration not stated) | inactive: 1.37% |
| O=C(NCC1(N2CCCCC2)CCCCC1)c1cccc(Cl)c1 | inactive: -0.837% |
| COc1ccc(C(=O)NCC2(N(C)C)CCCCC2)cc1Cl | inactive: -1.84% |
| COc1cccc(C(=O)NCC2(N3CCCCC3)CCCCC2)c1 | inactive: -1.03% |
| COc1ccc(Cl)cc1C(=O)NCC1(N(C)C)CCCCC1 | inactive: 0.514% |
| COc1cc(C(=O)NCC2(N(C)C)CCCCC2)c([N+](=O)[O-])cc1OC | inactive: 1.71% |
| CN(C)C1(CNC(=O)c2ccc(Br)cc2)CCCCC1 | inactive: -2.2% |
| O=C(CBr)c1ccc(Cl)cc1 | inactive: 0.273% |
| CN(C)c1cccc(C(=O)NCC2(N(C)C)CCCCC2)c1 | inactive: -0.583% |
| CC(C)Oc1ccc(C(=O)NCC2(N(C)C)CCCCC2)cc1 | inactive: -1.69% and inactive: 2.05% |
| O=C(OCCN1CCCC1)C(O)(c1ccccc1)c1ccccc1 | inactive: 0.673% |
| Cc1cccc(C(=O)NCC2(N(C)C)CCCCC2)c1 | inactive: 0.907% |
| COc1cc(C(=O)NCC2(N(C)C)CCCCC2)cc(OC)c1OC | inactive: 0.669% |
| COc1ccc(Br)c(C(=O)NCC2(N3CCCCC3)CCCCC2)c1 | inactive: 1.51% |
| C=C(C)C#CC(O)(C(=O)OC1CCN(C)CC1)c1ccccc1 (configuration not stated) | inactive: 3.37% |
| CC(C)COc1ccc(C(=O)NCC2(N(C)C)CCCCC2)cc1 | inactive: -1.52% |
| O=C(OC1CN2CCC1CC2)C(CO)(c1ccccc1)c1ccccc1 (configuration not stated) | inactive: 0.419% |
| COc1cccc(C(=O)NCC2(N3CCOCC3)CCCCC2)c1 | inactive: -1.06% |
